Experimental data: patent US9023865B2, “Compounds that are ERK inhibitors” (Merck Sharp & Dohme Corp., priority 2011, dated 2015)
Like-named read-outs stand apart in the source and are kept apart here.

By UniProt entry, the sequences of proteins in these tests, tags left out.
UniProt P28482, whole entry: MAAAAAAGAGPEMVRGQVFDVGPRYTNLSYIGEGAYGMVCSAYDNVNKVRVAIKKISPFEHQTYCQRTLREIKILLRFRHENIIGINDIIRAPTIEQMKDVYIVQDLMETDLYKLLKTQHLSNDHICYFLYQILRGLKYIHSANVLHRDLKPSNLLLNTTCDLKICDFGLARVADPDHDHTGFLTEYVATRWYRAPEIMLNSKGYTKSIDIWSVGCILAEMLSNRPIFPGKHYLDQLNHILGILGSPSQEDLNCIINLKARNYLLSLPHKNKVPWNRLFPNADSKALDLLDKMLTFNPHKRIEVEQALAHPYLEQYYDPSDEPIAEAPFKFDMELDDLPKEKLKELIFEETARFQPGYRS

Molecular target: Active Human ERK2 (hERK2) (Homo sapiens (Human), UniProt P28482)
Test: Active Human ERK2 (hERK2) Activity Assay (IMAP-FP)
Assay type: biochemical
Conditions: read-out: ERK 2 Human average IC50
[1] = phosphorylated active hERK2, 30 μM ATP, average

| IC50 [1] [nM] | SMILES | IC50 [nM] |
| --- | --- | --- |
| 6.21 | COC[C@H](C)NC(=O)Nc1cc2[nH]nc(-c3ccc(F)cc3)c2cn1 |  |
| 53.5 | Cc1cc(-c2n[nH]c3cc(NC(=O)NC(CC(C)(C)C)c4ccc(Cl)cc4)ncc23)ccn1 (stereo not drawn) |  |
| 36.4 | COCCNC(=O)Nc1cc2[nH]nc(-c3ccc(C(C)(C)C#N)cc3)c2cn1 |  |
| 12.8 | Cc1cc(-c2n[nH]c3cc(NC(=O)NC(CC(C)C)c4ccc(Cl)cc4)ncc23)ccn1 (stereo not drawn) |  |
|  | Cc1cc(-c2n[nH]c3cc(NC(=O)NC4CCOc5c(F)cc(F)cc54)ncc23)ccn1 (stereo not drawn) | 8.36 |
| 32.5 | C[C@@H](NC(=O)Nc1cc2[nH]nc(-c3cncc(C(F)(F)F)c3)c2cn1)c1ccc(F)cc1 |  |
| 0.739 | Cc1cc(-c2n[nH]c3cc(NC(=O)NC(CN(C)C)c4ccccc4)ncc23)ccn1 (stereo not drawn) |  |
| 0.886 | CN(C)CC(NC(=O)Nc1cc2[nH]nc(-c3ccc(F)cc3)c2cn1)c1ccccc1 (stereo not drawn) |  |
|  | Cc1cc(-c2n[nH]c3cc(NC(=O)N[C@@H]4CCOc5cc(Cl)ccc54)ncc23)ccn1 | 6.33 |
| 0.516 | Cc1cc(-c2n[nH]c3cc(NC(=O)N[C@H]4CN(C)C5(COC5)[C@@H]4c4ccccc4)ncc23)ccn1 |  |
| 2.19 | COC[C@@H](C)NC(=O)Nc1cc2[nH]nc(-c3ccc(F)cc3)c2cn1 |  |

| SMILES | IC50 [1] [nM] | IC50 [nM] |
| --- | --- | --- |
| C[C@@H](NC(=O)Nc1cc2[nH]nc(-c3cc(CO)on3)c2cn1)c1ccccc1 | 19.7 |  |
| Cc1cc(-c2n[nH]c3c(F)c(NC(=O)N[C@H](C)c4ccc(F)cc4)ncc23)ccn1 | 0.304 |  |
| Cc1cc(-c2n[nH]c3cc(NC(=O)NC4CNCc5ccccc54)ncc23)ccn1 (stereo not drawn) | 1.2 |  |
| Cc1cc(-c2n[nH]c3cc(NC(=O)NCc4ccc(F)cc4Cl)ncc23)ccn1 | 1.2 |  |
